Values quoted from earlier work in patent US6589223B1, “Method and compositions for use in perfusion applications” (BioTime, Inc., priority 1999, dated 2003).

Conditions: artificial oncotic agents; Messmer (1989)

intravascular persistence rates [h] | Substance
2 to 3 | dextran 40
6 | dextran 70
